{"source": "patent US10125358B2", "about": "“Methods and compounds for increasing threonyl-tRNA synthetase activity” (UNIVERSITY OF VERMONT AND STATE AGRICULTURAL COLLEGE, priority 2012, dated 2018)", "test_system": "HUVEC", "experiment": "Lactate dehydrogenase membrane integrity assay (CytoTox-ONE)", "settings": "HUVECs treated with 50 ng/ml, 6 h and 16 h", "data": [{"substance": "VEGF", "values": [{"measurement": "cell lysis / cytotoxicity (LDH)", "value": "not due to cell lysis"}]}]}
